ChEMBL document CHEMBL3612042 (J Med Chem, 2015)

Key:
[1] = target: T1, Biotin--[acetyl-CoA-carboxylase] ligase (Mycobacterium tuberculosis (strain ATCC 25618 / H37Rv), UniProt I6YFP0)
T1 sequence (I6YFP0 whole entry): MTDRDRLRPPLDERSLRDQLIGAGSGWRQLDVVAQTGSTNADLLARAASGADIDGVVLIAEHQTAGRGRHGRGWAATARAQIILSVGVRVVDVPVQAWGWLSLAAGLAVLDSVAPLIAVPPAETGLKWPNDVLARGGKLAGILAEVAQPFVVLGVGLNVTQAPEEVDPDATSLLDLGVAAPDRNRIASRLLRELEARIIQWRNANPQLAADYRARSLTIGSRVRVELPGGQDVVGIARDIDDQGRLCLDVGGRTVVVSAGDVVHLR

[2] = test system: Mycobacterium tuberculosis; test: Antibacterial activity against Mycobacterium tuberculosis H37Rv measured at 10 to 14 days by broth microdilution method; type: functional

Nc1ncnc2c1ncn2COCCNS(=O)(=O)NC(=O)CCCC[C@@H]1SC[C@@H]2NC(=O)N[C@@H]21 showed a Kd [1] of 0.315 nM and an MIC90 [2] of 3.12 µM (≈ 1.6 µg/mL).

≈ marks a conversion by molar mass, not a printed value.
